Measured values published in US20200085828A1, “PHOSPHODIESTERASE INHIBITORS AND METHODS OF MICROBIAL TREATMENT” (Mavupharma, Inc., priority 2016, published 2020).

Protein sequences, listed by entry. Tags and fused reporters are not part of them.
UniProt P22413, whole entry: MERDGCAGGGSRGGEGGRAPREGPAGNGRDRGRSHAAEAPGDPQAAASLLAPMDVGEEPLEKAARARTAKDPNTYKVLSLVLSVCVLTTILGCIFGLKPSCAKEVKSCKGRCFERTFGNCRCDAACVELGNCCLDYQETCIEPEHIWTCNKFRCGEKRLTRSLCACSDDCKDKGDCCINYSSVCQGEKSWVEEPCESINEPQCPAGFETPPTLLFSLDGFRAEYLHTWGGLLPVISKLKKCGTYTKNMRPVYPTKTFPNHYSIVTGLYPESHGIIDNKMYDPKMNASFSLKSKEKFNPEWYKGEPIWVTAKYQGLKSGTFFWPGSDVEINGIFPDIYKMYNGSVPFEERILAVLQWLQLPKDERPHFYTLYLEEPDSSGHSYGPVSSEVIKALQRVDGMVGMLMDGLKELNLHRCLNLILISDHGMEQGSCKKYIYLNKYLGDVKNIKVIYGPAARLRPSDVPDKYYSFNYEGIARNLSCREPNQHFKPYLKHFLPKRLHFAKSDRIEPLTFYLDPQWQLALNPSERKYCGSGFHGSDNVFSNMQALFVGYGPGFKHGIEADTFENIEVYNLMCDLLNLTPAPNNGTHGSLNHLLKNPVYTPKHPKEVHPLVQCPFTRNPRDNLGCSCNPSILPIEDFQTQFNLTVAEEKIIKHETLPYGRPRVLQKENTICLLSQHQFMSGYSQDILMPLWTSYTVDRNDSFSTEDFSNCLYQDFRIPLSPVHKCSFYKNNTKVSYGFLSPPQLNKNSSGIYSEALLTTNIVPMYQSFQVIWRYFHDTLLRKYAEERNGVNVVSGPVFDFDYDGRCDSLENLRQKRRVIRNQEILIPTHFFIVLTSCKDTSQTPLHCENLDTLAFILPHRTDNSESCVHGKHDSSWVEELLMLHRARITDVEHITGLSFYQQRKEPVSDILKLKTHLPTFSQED

Key:
human recombinant ENPP1 [1] = target: T1, human recombinant ENPP1 (Homo sapiens, UniProt P22413); test: ENPP1 inhibition with 2′,3′-cGAMP substrate (AMP-Glo assay); type: biochemical; details: read-out: ENPP1 inhibition Ki (nM) cGAMP Substrate; 20 μM 2′3′cGAMP; Ki from IC50 by Cheng-Prusoff, Km 15 μM
human recombinant ENPP1 [2] = target: T1, human recombinant ENPP1; test: ENPP1 inhibition with AMP-pNP (ATP analog) substrate, absorbance at 405 nm; type: biochemical; details: read-out: ENPP1 inhibition Ki (nM) AMP-pNP Substrate; 300 μM AMP-pNP; Ki from IC50 by Cheng-Prusoff, Km 151 μM

Question: What does the source list for `COc1cc2ncnc(NCc3ccc(NS(N)(=O)=O)cc3)c2cc1OC`?
Answer: Ki (human recombinant ENPP1 [1]): 9.1 nM; Ki (human recombinant ENPP1 [2]): 316 nM

Question: `COc1cc2ncnc(N3CCC(CNS(N)(=O)=O)CC3)c2cc1OC` was tested. Which Ki (human recombinant ENPP1 [1]) did it give?
Answer: 2.4 nM

Question: And the Ki (human recombinant ENPP1 [2])?
Answer: 208 nM

Question: How did the Ki (human recombinant ENPP1 [1]) turn out when `COc1cc2ncnc(N3CCN(C(=O)CNS(N)(=O)=O)CC3)c2cc1OC` was run?
Answer: 7.3 nM

Question: What about the Ki (human recombinant ENPP1 [2]) of the same compound?
Answer: 418 nM

Question: For `COc1cc2ncnc(-c3ccc(CNS(N)(=O)=O)cc3)c2cc1OC`, which Ki (human recombinant ENPP1 [1]) is on record?
Answer: 2.9 nM

Question: What about the Ki (human recombinant ENPP1 [2]) of the same compound?
Answer: 140 nM

Question: Which results are given for `CNc1nc(N2CCC(CCNS(N)(=O)=O)CC2)c2cc(OC)c(OC)cc2n1`?
Answer: Ki (human recombinant ENPP1 [1]): 77.5 nM; Ki (human recombinant ENPP1 [2]): > 3000 nM

Question: Which results are given for `COc1cc2nc(N)nc(N3CCC(CCNS(N)(=O)=O)CC3)c2cc1OC`?
Answer: Ki (human recombinant ENPP1 [1]): 6.2 nM; Ki (human recombinant ENPP1 [2]): 296 nM
